Consider one compound from US4104397A, “Spiro (1,3-dioxolane-4,3') quinuclidine compounds” (The Purdue Frederick Company, priority 1975, dated 1978).

Chains of the proteins cited; added tags and fusions are not shown. Residues count along the entry.
UniProt H0W1Z3, 1-590: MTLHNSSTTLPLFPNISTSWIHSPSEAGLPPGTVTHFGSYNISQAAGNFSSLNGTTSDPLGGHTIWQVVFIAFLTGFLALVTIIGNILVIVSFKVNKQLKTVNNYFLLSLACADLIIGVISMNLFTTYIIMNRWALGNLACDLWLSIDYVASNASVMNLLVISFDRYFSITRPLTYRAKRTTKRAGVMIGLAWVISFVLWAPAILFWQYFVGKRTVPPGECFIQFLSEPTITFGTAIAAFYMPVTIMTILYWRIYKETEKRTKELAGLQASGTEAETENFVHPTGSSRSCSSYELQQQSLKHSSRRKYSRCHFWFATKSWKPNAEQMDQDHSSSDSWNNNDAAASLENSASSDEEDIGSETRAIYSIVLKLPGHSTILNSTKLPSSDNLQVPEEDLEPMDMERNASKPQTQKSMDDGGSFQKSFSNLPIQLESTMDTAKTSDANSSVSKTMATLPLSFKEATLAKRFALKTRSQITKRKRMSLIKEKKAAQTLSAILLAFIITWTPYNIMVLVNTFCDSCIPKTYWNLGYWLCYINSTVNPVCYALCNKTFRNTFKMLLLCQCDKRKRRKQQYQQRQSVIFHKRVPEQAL

In the experiment the target is T1, Guinea-pig ileum (Cavia porcellus, UniProt H0W1Z3).
T1 construct: Guinea-pig ileum, log Ki; from tissue; host or cells: guinea-pig ileum
Description: Antagonism in guinea-pig ileum (log Ki), Table 3. Type of experiment: cell-based. The conditions noted are these: printed as log Ki (negative). From the text: |Guinea-pig ileum, log Ki

The term Ki denotes the dissociation constant of the complex between target and ligand, obtained from inhibition or displacement. Higher therefore signals weaker binding. For `CN1[C@@H]2CC[C@H]1CC(OC(=O)C(CO)c1ccccc1)C2` (stereo partly shown) [Atropine Sulphate], the Ki is 1 nM.
